The entries are a selection whose mix differs from that of the whole data set. Calls of active or inactive are those of the source.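 How the source made its calls: active means inhibition above that plate's mean sample inhibition plus 3 SD (cut at about 26% in these data); inactive means the rest.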
Test: ATP-evoked calcium signal inhibitors, parental CHO, primary screen, counter-screen for OX1R antagonist project, cell-based, fluorescence, Fluo-8 calcium dye (AID 463079);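 further: 0% = ATP-challenged DMSO wells and 100% = DMSO wells without ATP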
Details: parental CHO-K1, ATP-induced calcium, Fluo-8 fluorescence; at 5.6 µM; hits give high values
Summary of the method: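 Assay system: untransfected parental CHO cell line. Also added: ATP agonist challenge. Dosing: one dose, 5.6 µM nominal. Measured by: Fluo-8 fluorescence. Read-out: % inhibition. Benchmarks: ATP wells versus no-ATP DMSO wells. Repeats: no replicates.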
For `Fc1ccccc1NC1CCN(Cc2ccccc2)CC1`, the inhibition was inactive: 3.36%.
For `Cc1ccc(C(=O)NCC2(N3CCCCC3)CCCCC2)o1`, the inhibition was inactive: -11.6%.
In the case of `COc1cc(OC)cc(C(=O)NCC2(N3CCCCC3)CCCCC2)c1`, the inhibition is reported as inactive: -20.3%.
With `CN(C)c1ccc(C(=O)NCC2(N3CCCCC3)CCCCC2)cc1` the inhibition was inactive: -6.84%.
For `O=C(NCC1(N2CCCCC2)CCCCC1)c1ccco1`, the inhibition was inactive: -13.5%.
For `CCN1CCC(Nc2cccc(F)c2)CC1`, the inhibition was inactive: -3.41%.
For `CCCOc1ccc(C(=O)NCC2(N(C)C)CCCCC2)cc1`, the inhibition was inactive: -11.2%.
With `O=C(O)C1(Nc2ccccc2)CCN(Cc2ccccc2)CC1` the inhibition was inactive: 7.73%.
With `CC(C)(C)OC(=O)N1CCC(Nc2ccccc2)CC1` the inhibition was inactive: -6.95%.
With `CN1CCC(Nc2ccc(F)c(Cl)c2)CC1` the inhibition was inactive: 3.51%.
For `CCOc1ncccc1C(=O)NCC1(N2CCOCC2)CCCCC1`, the inhibition was inactive: -22.4%.
With `CCCOc1ccc(C)cc1CN(CCCl)CCCl` the inhibition was inactive: -6.15%.
With `CN1CCC(Nc2ccc(Cl)cc2)CC1` the inhibition was inactive: -6.24%.
For `CCC(CO)(C(=O)OC1CN2CCC1CC2)c1ccccc1` (stereo not drawn), the inhibition was inactive: -10.1%.
For `COc1cc(OC)cc(C(=O)NCC2(N3CCOCC3)CCCCC2)c1`, the inhibition was inactive: -9.93%.
With `COc1cccc(C(=O)N(c2cc(C)cc(C)c2)C2CCN(C(=O)OC(C)(C)C)CC2)c1` the inhibition was inactive: -20.9%.
With `COc1ccc(C(=O)NCC2(N3CCOCC3)CCCCC2)cc1OC` the inhibition was inactive: -18.6%.
For `O=C(NCC1(N2CCOCC2)CCCCC1)c1cc(Br)ccc1Cl`, the inhibition was inactive: -23.8%.
In the case of `COc1cc(C(=O)NCC2(N3CCOCC3)CCCCC2)cc(OC)c1C`, the inhibition is reported as inactive: -13.6%.
For `CCc1cc(C(=O)NCC2(N3CCCCC3)CCCCC2)sc1C`, the inhibition was inactive: -29.9%.
In the case of `O=C(OC1CN2CCC1CC2)C1c2ccccc2C=Cc2ccccc21` (stereo not drawn), the inhibition is reported as inactive: -18.8%.
For `N/C(=N\O)c1c(N)no[n+]1[O-]`, the inhibition was inactive: -4.41%.
For `CCOC(=O)N1CCC(Nc2ccc(C)cc2)CC1`, the inhibition was inactive: 4.64%.
In the case of `CC(C)(C)OC(=O)N1CCC(N(C(=O)c2ccccc2)c2ccc(Cl)cc2)CC1`, the inhibition is reported as inactive: -28.2%.
With `N#Cc1ccc(C(=O)NCC2(N3CCCCC3)CCCCC2)cc1` the inhibition was inactive: -18.7%.
With `CCCN1CCC(Nc2cc(OC)cc(OC)c2)CC1` the inhibition was inactive: -15.4%.
With `c1ccc(CN2CCC(Nc3ccccc3)CC2)cc1` the inhibition was inactive: -5.71%.
In the case of `CN(C)C1(CNC(=O)c2cccc(C#N)c2)CCCCC1`, the inhibition is reported as inactive: -2.23%.
For `O=C(NCC1(N2CCCCC2)CCCCC1)c1cccc([N+](=O)[O-])c1`, the inhibition was inactive: -18.5%.
For `N#CC1(Nc2ccccc2)CCN(CCc2ccccc2)CC1`, the inhibition was inactive: -15.1%.
For `CCN1CCC(Nc2ccc(Cl)cc2)CC1`, the inhibition was inactive: -0.31%.
For `O=C(NCC1(N2CCCCC2)CCCCC1)c1ccc(OC(F)F)cc1`, the inhibition was inactive: -10.4%.
In the case of `CN1CCN(CCOC(=O)C(O)(c2ccccc2)c2ccccc2)CC1`, the inhibition is reported as inactive: 0.36%.
With `COc1ccc(NC2CCN(C(=O)OC(C)(C)C)CC2)cc1` the inhibition was inactive: 0.32%.
With `COc1cc(C(=O)NCC2(N3CCCCC3)CCCCC2)ccc1OC(F)F` the inhibition was inactive: -23.8%.
For `O=C(NCC1(N2CCOCC2)CCCCC1)c1cc(=O)[nH]c2ccccc12`, the inhibition was inactive: -2.42%.
With `O=C(NCC1(N2CCCCC2)CCCCC1)c1cccc(C(F)(F)F)c1` the inhibition was inactive: -10%.
For `O=C(NCC1(N2CCOCC2)CCCCC1)c1cc(F)c(F)cc1Cl`, the inhibition was inactive: -12%.
In the case of `COc1cc(OC)c(C(=O)NCC2(N(C)C)CCCCC2)cc1OC`, the inhibition is reported as inactive: -15.3%.
For `CN(C)c1cccc(C(=O)NCC2(N3CCCCC3)CCCCC2)c1`, the inhibition was inactive: -15.5%.
With `COc1ccc(CN(CCCl)CCCl)cc1Cl` the inhibition was inactive: -16.8%.
For `CC(C)c1ccc(NC2CCN(C(=O)OC(C)(C)C)CC2)cc1`, the inhibition was inactive: -6.57%.
In the case of `CN1CCC(Nc2cccc(F)c2)CC1`, the inhibition is reported as inactive: 7.8%.
With `O=C(NCC1(N2CCCCC2)CCCCC1)c1cncc(Br)c1` the inhibition was inactive: -23.7%.
For `CSc1ccccc1C(=O)NCC1(N2CCCCC2)CCCCC1`, the inhibition was inactive: -38.5%.
For `O=C(NCC1(N2CCCCC2)CCCCC1)c1cccs1`, the inhibition was inactive: -13.1%.
For `O=C(NCC1(N2CCCCC2)CCCCC1)c1ccc(=O)[nH]c1`, the inhibition was inactive: -3.15%.
For `CC(C)(C)OC(=O)N1CCC(N(C(=O)c2ccccc2)c2ccc(F)cc2)CC1`, the inhibition was inactive: -21.5%.
With `COc1ccc(C(=O)NCC2(N3CCCCC3)CCCCC2)c(OC)c1OC` the inhibition was inactive: -12.4%.
In the case of `COc1ccc(C(=O)NCC2(N3CCCCC3)CCCCC2)cc1`, the inhibition is reported as inactive: -6.52%.
For `CCOC(=O)N1CCC(Nc2ccc(OC)cc2)CC1`, the inhibition was inactive: 0.06%.
With `COc1ccc(Cl)cc1C(=O)NCC1(N2CCOCC2)CCCCC1` the inhibition was inactive: -11.6%.
In the case of `N#CC1(Nc2ccccc2)CCN(Cc2ccccc2)CC1`, the inhibition is reported as inactive: -6.17%.
In the case of `O=C(NCC1(N2CCCCC2)CCCCC1)c1ccc(Cl)s1`, the inhibition is reported as inactive: -20.9%.
In the case of `O=C(OC1CN2CCC1CC2)C1c2ccccc2Oc2ccccc21` (stereo not drawn), the inhibition is reported as inactive: -16.1%.
For `O=C(NCC1(N2CCOCC2)CCCCC1)c1cc2ccccc2o1`, the inhibition was inactive: -11.9%.
With `Cc1cc(C)cc(N(C(=O)c2ccccc2)C2CCN(C(=O)OC(C)(C)C)CC2)c1` the inhibition was inactive: 4.72%.
With `O=C(NCC1(N2CCCCC2)CCCCC1)c1ccc(Cl)nc1` the inhibition was inactive: -28.1%.
With `COc1ccc(NC2CCN(CCc3ccccc3)CC2)c(OC)c1` the inhibition was inactive: -9.01%.
In the case of `O=C(NCC1(N2CCCCC2)CCCCC1)c1ccc(F)cc1`, the inhibition is reported as inactive: -13.1%.
With `CCOc1ccc(C)cc1CN(CCCl)CCCl` the inhibition was inactive: -5.99%.
With `Cc1ccc(OCC(C)C)c(CN(CCCl)CCCl)c1` the inhibition was inactive: -7.78%.
For `CCOC(=O)N1CCC(Nc2cccc(C)c2)CC1`, the inhibition was inactive: -1.34%.

— PubChem BioAssay AID463079 (The Scripps Research Institute Molecular Screening Center, 2010)
